By UniProt entry, the sequences of proteins in these tests, tags left out. Residues count along the entry.
UniProt P30613, 14-574 limits assumed: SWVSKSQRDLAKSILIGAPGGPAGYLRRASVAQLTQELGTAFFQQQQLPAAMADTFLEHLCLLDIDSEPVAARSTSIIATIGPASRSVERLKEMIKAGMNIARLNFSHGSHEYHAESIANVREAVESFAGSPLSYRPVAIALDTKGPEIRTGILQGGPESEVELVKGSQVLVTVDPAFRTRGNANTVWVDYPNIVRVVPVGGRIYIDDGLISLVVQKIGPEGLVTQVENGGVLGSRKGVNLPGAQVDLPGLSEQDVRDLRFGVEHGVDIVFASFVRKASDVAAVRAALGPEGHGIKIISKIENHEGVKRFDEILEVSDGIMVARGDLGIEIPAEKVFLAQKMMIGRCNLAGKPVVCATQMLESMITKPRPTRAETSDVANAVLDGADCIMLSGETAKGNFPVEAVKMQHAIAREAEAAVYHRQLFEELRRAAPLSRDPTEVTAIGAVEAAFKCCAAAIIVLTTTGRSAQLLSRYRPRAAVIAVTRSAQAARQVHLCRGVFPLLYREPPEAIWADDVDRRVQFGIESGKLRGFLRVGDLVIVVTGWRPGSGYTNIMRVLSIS

In US20230159538A1, “PYRROLIDINE-PYRAZOLES AS PYRUVATE KINASE ACTIVATORS” (Global Blood Therapeutics, Inc., priority 2020, published 2023):

Molecular target: Human pyruvate kinase R (PKR) (Homo sapiens, UniProt P30613)
Assay: Biochemical assay for activation of pyruvate kinase R (Kinase-Glo luminescence, ATP generation)
Settings: for PKR % activation: maximal activation level relative to the activation level achieved by AG-348 @ 10 μM; for AC50: read-out: PKR AC50, 0.1 nM PKR, 2 mM FBP, 0.3 mM ADP, 0.1 mM PEP

| SMILES | PKR % activation | AC50 |
| --- | --- | --- |
| COc1ccc(S(=O)(=O)n2cc3c(n2)CN(C(=O)C(O)c2ncccc2F)C3)nc1 (single isomer, unassigned) [Compound 104] | 103% | 0.24 µM |
| COc1ccc(S(=O)(=O)n2cc3c(n2)CN(C(=O)C(O)c2ncccc2F)C3)nc1 (single isomer, unassigned) [Compound 105] | 151% | 9.4 µM |
